The entries are a selection whose mix differs from that of the whole data set. Some salts or complexes appear as unconnected parts, following the source record. Activity calls are given as the source filed them. Cut-off read from the data, not from the text of the source: active = inhibition above about 50%; inactive = the rest.
What follows are compounds tested against Microphthalmia-associated transcription factor (Homo sapiens) (UniProt O75030) (assay: MITF inhibitors, primary screen, biochemical, AlphaScreen, human (AID 1259374;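 note: 0% = vehicle wells with protein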)). Settings: AlphaScreen MITF homodimerization, bead proximity signal; at 2.6 µM; stronger effect = higher value.

Chains of the proteins cited; added tags and fusions are not shown.
UniProt O75030, whole entry: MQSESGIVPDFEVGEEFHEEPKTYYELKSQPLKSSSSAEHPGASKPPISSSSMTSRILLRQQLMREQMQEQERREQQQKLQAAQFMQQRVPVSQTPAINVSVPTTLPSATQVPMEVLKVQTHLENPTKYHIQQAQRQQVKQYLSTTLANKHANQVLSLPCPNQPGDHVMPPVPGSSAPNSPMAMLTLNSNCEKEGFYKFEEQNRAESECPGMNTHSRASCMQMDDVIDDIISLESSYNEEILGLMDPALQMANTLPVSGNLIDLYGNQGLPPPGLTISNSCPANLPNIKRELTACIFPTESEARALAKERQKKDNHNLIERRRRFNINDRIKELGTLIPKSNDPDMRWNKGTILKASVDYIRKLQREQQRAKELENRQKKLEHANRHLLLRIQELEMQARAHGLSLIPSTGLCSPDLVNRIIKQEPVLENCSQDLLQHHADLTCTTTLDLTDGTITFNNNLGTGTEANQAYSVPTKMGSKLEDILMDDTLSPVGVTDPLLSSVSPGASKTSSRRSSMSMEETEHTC

Question: Which inhibition does the source give for `C=CCN1CCN(CCOC(=O)C(O)(c2ccccc2)c2ccccc2)CC1` here?
Answer: Its inhibition is inactive: 0.71%.

Question: Which inhibition does the source give for `CP(=O)(O)Oc1cccc(Cl)c1Cl` here?
Answer: The inhibition was inactive: 4.54%.

Question: How did the inhibition turn out when `Cc1cc(-c2cccc3ccccc23)c(C)cn1.O=[N+]([O-])c1cc([N+](=O)[O-])c(O)c([N+](=O)[O-])c1` was run?
Answer: Its inhibition is inactive: -8.47%.

Question: `O=[N+]([O-])c1cc([N+](=O)[O-])c(NCC2CCS(=O)(=O)C2)c([N+](=O)[O-])c1` (stereo unspecified) was tested. Which inhibition did it give?
Answer: The inhibition was inactive: 19.7%.

Question: Which inhibition does the source give for `Cc1ccc(Cl)c(OP(C)(=O)Nc2cccnc2)c1` (stereo unspecified) here?
Answer: Its inhibition is inactive: -12.9%.

Question: With `CCOC(=O)c1ccc(NP(C)(=O)Oc2ccc(F)cc2)cc1` (stereo unspecified) as the compound, how does the inhibition read?
Answer: The inhibition was inactive: -10.4%.

Question: Which inhibition does the source give for `O=C(c1c([N+](=O)[O-])cc([N+](=O)[O-])cc1[N+](=O)[O-])N1CCOCC1` here?
Answer: The inhibition was inactive: 4.6%.

Question: `CP(=O)(Nc1ccccc1)Oc1ccc(F)cc1` (stereo unspecified) was tested. Which inhibition did it give?
Answer: The inhibition was inactive: 2.64%.

Question: Which inhibition does the source give for `COc1cc2c(cc1NP(C)(=O)Oc1ccccc1)oc1ccccc12` (stereo unspecified) here?
Answer: Its inhibition is inactive: 6.44%.

Question: Which inhibition does the source give for `Cc1ccc(NP(C)(=O)Oc2ccc(Cl)cc2)cc1` (stereo unspecified) here?
Answer: Its inhibition is inactive: 3.53%.

Question: With `CP(=O)(O)OC(c1ccccc1)C(Cl)(Cl)Cl` (stereo unspecified) as the compound, how does the inhibition read?
Answer: The inhibition was inactive: 4.55%.

Question: `CP(=O)(Nc1ccccc1F)Oc1ccccc1` (stereo unspecified) was tested. Which inhibition did it give?
Answer: Its inhibition is inactive: -8.1%.

Question: With `C=CCNc1c([N+](=O)[O-])cc([N+](=O)[O-])c(C)c1[N+](=O)[O-]` as the compound, how does the inhibition read?
Answer: The inhibition was inactive: -2.93%.

Question: For `Nc1c([N+](=O)[O-])cc([N+](=O)[O-])c2nonc12`, which inhibition is on record?
Answer: Its inhibition is inactive: -36.6%.

Question: How did the inhibition turn out when `CCP1(=O)Oc2cc(C(C)(C)C)cc(C(C)(C)C)c2O1` (stereo unspecified) was run?
Answer: The inhibition was inactive: 6.52%.

Question: Which inhibition does the source give for `Cc1cc([N+](=O)[O-])c(NCC(C)([N+](=O)[O-])[N+](=O)[O-])c([N+](=O)[O-])c1[N+](=O)[O-]` here?
Answer: Its inhibition is inactive: 0.44%.

Question: Which inhibition does the source give for `CP(=O)(Nc1cccnc1)Oc1ccc(Cl)cc1` (stereo unspecified) here?
Answer: Its inhibition is inactive: -10.5%.

Question: With `O=C(OCCN1CCN(CCOCc2ccccc2)CC1)C(O)(c1ccccc1)c1ccccc1` as the compound, how does the inhibition read?
Answer: The inhibition was inactive: -2.55%.

Question: Which inhibition does the source give for `CN(C)CCOC(=O)C(O)(c1ccccc1)C1CCCC1` (stereo unspecified) here?
Answer: Its inhibition is inactive: 1.15%.

Question: With `CCN(CC)CCOC(=O)C(O)(c1ccccc1)C1CCCCC1` (stereo unspecified) as the compound, how does the inhibition read?
Answer: The inhibition was inactive: 4.35%.

Question: How did the inhibition turn out when `COc1ccc(OP(C)(=O)Nc2ccccn2)cc1` (stereo unspecified) was run?
Answer: The inhibition was inactive: 9.65%.

Question: How did the inhibition turn out when `COc1ccccc1OP(C)(=O)Nc1ccc(Br)cc1` (stereo unspecified) was run?
Answer: The inhibition was inactive: -5.44%.

Question: Which inhibition does the source give for `NC(=O)c1c([N+](=O)[O-])cc([N+](=O)[O-])cc1[N+](=O)[O-]` here?
Answer: The inhibition was inactive: 14.3%.

Question: Which inhibition does the source give for `CN(C)c1c([N+](=O)[O-])cc([N+](=O)[O-])c(N(C)C)c1[N+](=O)[O-]` here?
Answer: Its inhibition is inactive: 16%.

Question: Which inhibition does the source give for `CC(CN(C)C)OC(=O)C(O)(c1ccccc1)c1ccccc1` (stereo unspecified) here?
Answer: The inhibition was inactive: 5.13%.

Question: `CP(=O)(Nc1ccc(F)cc1)Oc1ccc(Cl)cc1` (stereo unspecified) was tested. Which inhibition did it give?
Answer: Its inhibition is inactive: 3.03%.

Question: For `Cc1c(NP(C)(=O)Oc2ccc(C(C)C)cc2)c(=O)n(-c2ccccc2)n1C` (stereo unspecified), which inhibition is on record?
Answer: Its inhibition is inactive: 20.2%.

Question: How did the inhibition turn out when `CCOP(C)(=S)SCN(CC(=O)O)C(=O)OCc1ccccc1` (stereo unspecified) was run?
Answer: The inhibition was inactive: -2.21%.

Question: `O=[N+]([O-])c1cc([N+](=O)[O-])c(Nc2ccccn2)c([N+](=O)[O-])c1` was tested. Which inhibition did it give?
Answer: Its inhibition is inactive: 19.2%.

Question: `Nc1c([N+](=O)[O-])cc([N+](=O)[O-])c(Nc2ccccc2C(=O)O)c1[N+](=O)[O-]` was tested. Which inhibition did it give?
Answer: The inhibition was inactive: 1.87%.

Question: Which inhibition does the source give for `COc1ccc(OP(C)(=O)Nc2ccccc2Br)cc1` (stereo unspecified) here?
Answer: The inhibition was inactive: 7.31%.

Question: Which inhibition does the source give for `COc1ccccc1OP(C)(=O)Nc1ccc(C)c(C)c1` (stereo unspecified) here?
Answer: Its inhibition is inactive: -4.75%.

Question: Which inhibition does the source give for `C/C1=C2N=C(/C=C3N=C(/C(C)=C4\[N-][C@@](C)([C@@H]5N=C1[C@](C)(CCC(=O)NC[C@@H](C)OP(=O)(O)O[C@H]1[C@@H](O)[C@@H](n6cnc7cc(C)c(C)cc76)O[C@@H]1CO)[C@H]5CC(N)=O)[C@@](C)(CC(N)=O)[C@@H]4CCC(N)=O)[C@@](C)(CC(N)=O)[C@@H]\3CCC(N)=O)C(C)(C)[C@@H]/2CCC(N)=O.[C-]#N.[Co+3]` here?
Answer: The inhibition was inactive: 5.28%.

Question: How did the inhibition turn out when `CCCCOc1ccc(NP(C)(=O)Oc2ccccc2OC)cc1` (stereo unspecified) was run?
Answer: The inhibition was inactive: -1.36%.

Question: `CP(=O)(Nc1ccc(Cl)cc1Cl)Oc1ccccc1` (stereo unspecified) was tested. Which inhibition did it give?
Answer: The inhibition was inactive: 4.08%.

Question: Which inhibition does the source give for `CP(=O)(OCCOc1ccccc1)OCCOc1ccccc1` here?
Answer: Its inhibition is inactive: 19%.

Question: With `O=[N+]([O-])c1cc([N+](=O)[O-])c(N2CCCCCC2)c([N+](=O)[O-])c1` as the compound, how does the inhibition read?
Answer: The inhibition was inactive: 38%.

Question: Which inhibition does the source give for `COCC(CN(C)[N+](=O)[O-])O[N+](=O)[O-]` (stereo unspecified) here?
Answer: Its inhibition is inactive: -4.25%.

Question: For `Cc1cccc(C)c1OP(C)(=O)Nc1ccccc1` (stereo unspecified), which inhibition is on record?
Answer: The inhibition was inactive: 0.07%.

Question: `O=[N+]([O-])c1cc([N+](=O)[O-])c(Nc2ccccc2)c([N+](=O)[O-])c1` was tested. Which inhibition did it give?
Answer: The inhibition was inactive: -2.81%.

Question: How did the inhibition turn out when `CP(=O)(OC12CC3CC(CC(C3)C1)C2)OC12CC3CC(CC(C3)C1)C2` was run?
Answer: The inhibition was inactive: 7.72%.

Question: How did the inhibition turn out when `CCOC(=O)c1ccc(NP(C)(=O)Oc2ccc(Cl)cc2)cc1` (stereo unspecified) was run?
Answer: The inhibition was inactive: -6.93%.

Question: Which inhibition does the source give for `CP(=O)(Nc1cccc(Cl)c1)Nc1cccc(Cl)c1` here?
Answer: Its inhibition is inactive: 6.61%.

Question: For `NNc1c([N+](=O)[O-])cc([N+](=O)[O-])cc1[N+](=O)[O-]`, which inhibition is on record?
Answer: Its inhibition is inactive: 9.06%.

Question: For `Nc1nonc1-[n+]1nc2nonc2[n-]1`, which inhibition is on record?
Answer: The inhibition was inactive: 1.08%.

Question: For `CC(C)c1ccc(OP(C)(=O)O)cc1`, which inhibition is on record?
Answer: The inhibition was inactive: 15.6%.

Question: `CN(c1nc2nonc2nc1N(C)[N+](=O)[O-])[N+](=O)[O-]` was tested. Which inhibition did it give?
Answer: The inhibition was inactive: 12.7%.

Question: `C/C1=C2N=C(/C=C3N=C(/C(C)=C4\[N-]C(C(CC(N)=O)C4(C)CCC(=O)NCC(C)OP(=O)([O-])OC4C(CO)OC(n5cnc6cc(C)c(C)cc65)C4O)C4(C)N=C1C(CCC(N)=O)C4(C)CC(N)=O)C(CCC(N)=O)C\3(C)C)C(CCC(N)=O)C/2(C)CC(N)=O.C/C1=C2N=C(/C=C3N=C(/C(C)=C4\[N-]C(C(CC(N)=O)C4(C)CCC(=O)NCC(C)OP(=O)([O-])OC4C(CO)OC(n5cnc6cc(C)c(C)cc65)C4O)C4(C)N=C1C(CCC(N)=O)C4(C)CC(N)=O)C(CCC(N)=O)C\3(C)C)C(CCC(N)=O)C/2(C)CC(N)=O.[C-]#N.[Co+3]` (stereo unspecified) was tested. Which inhibition did it give?
Answer: The inhibition was inactive: -50.6%.

Question: With `N1=Nc2nonc2N=Nc2nonc21` as the compound, how does the inhibition read?
Answer: Its inhibition is inactive: 9.49%.

Question: How did the inhibition turn out when `O=[N+]([O-])c1cc([N+](=O)[O-])c(N2CCOCC2)c([N+](=O)[O-])c1` was run?
Answer: Its inhibition is inactive: 13.1%.

Question: Which inhibition does the source give for `CP(=O)(Oc1ccccc1)N1CCOC1=O` (stereo unspecified) here?
Answer: Its inhibition is inactive: 19%.

Question: Which inhibition does the source give for `OCCSCCO` here?
Answer: The inhibition was inactive: -19.3%.

Question: Which inhibition does the source give for `COc1ccccc1OP(C)(=O)Nc1c(C)n(C)n(-c2ccccc2)c1=O` (stereo unspecified) here?
Answer: The inhibition was inactive: 15.5%.

Question: How did the inhibition turn out when `O=[N+]([O-])c1cc([N+](=O)[O-])c(NCc2ccccc2)c([N+](=O)[O-])c1` was run?
Answer: Its inhibition is inactive: 13.5%.

Question: For `COc1ccc(OP(C)(=O)Nc2ccc(Br)cc2)cc1` (stereo unspecified), which inhibition is on record?
Answer: The inhibition was inactive: 10.1%.

Question: For `CCc1ccc(OP(C)(=O)Nc2ccc(I)cc2)cc1` (stereo unspecified), which inhibition is on record?
Answer: Its inhibition is inactive: 16.4%.

Question: Which inhibition does the source give for `CN1CCCC1=C1c2cc([N+](=O)[O-])cc([N+](=O)[O-])c2-c2c1cc([N+](=O)[O-])cc2[N+](=O)[O-]` here?
Answer: The inhibition was inactive: -5.31%.

Question: For `O=C(Nc1ccccc1O)c1c([N+](=O)[O-])cc([N+](=O)[O-])cc1[N+](=O)[O-]`, which inhibition is on record?
Answer: Its inhibition is inactive: 4.5%.

Question: How did the inhibition turn out when `CP(=O)(Nc1ccc(F)c(Cl)c1)Oc1ccccc1` (stereo unspecified) was run?
Answer: Its inhibition is inactive: -17.8%.

Question: For `O=[N+]([O-])c1cc([N+](=O)[O-])c(Nc2ccccc2CO)c([N+](=O)[O-])c1`, which inhibition is on record?
Answer: The inhibition was inactive: 10.8%.

Question: How did the inhibition turn out when `CN(C)C(=O)c1c([N+](=O)[O-])cc([N+](=O)[O-])cc1[N+](=O)[O-]` was run?
Answer: Its inhibition is inactive: 3.47%.

Question: How did the inhibition turn out when `CN(C)/C=C(\C=O)c1c([N+](=O)[O-])cc([N+](=O)[O-])cc1[N+](=O)[O-]` was run?
Answer: The inhibition was inactive: 20.1%.

Question: With `CP(=O)(Nc1ccc(Cl)cc1)Oc1ccc(F)cc1` (stereo unspecified) as the compound, how does the inhibition read?
Answer: The inhibition was inactive: -0.33%.

Question: How did the inhibition turn out when `COc1cccc(C(OP(C)(=O)O)C(F)(F)F)c1` (stereo unspecified) was run?
Answer: Its inhibition is inactive: -4.87%.

Question: How did the inhibition turn out when `Cc1c([N+](=O)[O-])cc([N+](=O)[O-])c(Nc2ccc(C(=O)O)cc2)c1[N+](=O)[O-]` was run?
Answer: The inhibition was inactive: -13.5%.

Question: With `[O-][n+]1onc2c1c1no[n+]([O-])c1c1no[n+]([O-])c21` as the compound, how does the inhibition read?
Answer: The inhibition was inactive: 4.54%.
